Apparent affinities of Ab-95 variants for a coronavirus HR2 peptide

Target peptide (SARS-CoV-2 spike, HR2 region): PDVDLGDISGINAS

Ab-95 is the parent antibody, in scFv form: VH, then a 15-residue (Gly4Ser)3 linker, then VL. The heavy chain is unchanged in all variants.
VH: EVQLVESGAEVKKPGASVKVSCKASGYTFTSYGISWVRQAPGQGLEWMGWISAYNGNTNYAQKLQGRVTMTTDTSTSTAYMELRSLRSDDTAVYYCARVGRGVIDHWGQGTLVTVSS
VL: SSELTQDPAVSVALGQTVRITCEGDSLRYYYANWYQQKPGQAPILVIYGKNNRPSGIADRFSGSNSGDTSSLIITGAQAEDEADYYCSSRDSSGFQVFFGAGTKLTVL

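The parent was found by panning a naive human phage display library on the peptide. In library AAYL52, one, two or three CDR residues were substituted; doubles and triples were drawn at random. Affinity was read by AlphaSeq, a pooled yeast mating assay with surface-displayed partners. The frequency of each diploid, read from paired DNA barcodes, reflects how well the two displayed proteins bind. A regression on co-assayed BCL2-family reference pairs converts the normalised counts of each replicate to an apparent Kd. The assay was run in three technical replicates.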

Each variant is given by its three light chain CDRs, as the data file delimits them; those of the parent are EGDSLRYYYAN, GKNNRPS, SSRDSSGFQVF.
All variants listed here change V97 of the VL, counted from its first residue.
Values are log10 of the apparent Kd in nM; lower means stronger binding.
Where no diploid with the target was found in that replicate, the entry reads "nd": below detection, most likely a poor binder, though not proof of it.

* ECDSLRYYYAN | GKNNRPS | SSRDSSGFQDF -> 3.38, 3.68, nd
* EGDSLRYYYAN | GKNNRYS | WSRDSSGFQWF -> nd, nd, 4.52
* EGDSLRYYYAN | GKNNTPS | SSRPSSGFQHF -> 3.81, 4.08, 3.63
* EGDSLRYKYAN | GKNFRPS | SSRDSSGFQIF -> nd, 3.17, nd
* EGDSLRYYYEN | GKVNRPS | SSRDSSGFQMF -> nd, nd, nd
* EGDSLRKYYAN | GKNNRPS | SSRDSSGGQMF -> 1.67, 2.19, 1.26
* EGDSLRYYYAN | GKNNRPS | SSKDSWGFQHF -> 2.74, 1.76, 1.86
* ENDSLRYYYAN | GKNNRPS | TSRDSSGFQQF -> 3.16, nd, 4.06
* EGDSLRYYYAH | GKNNRPS | SSRDSSGFQHF -> 2.09, 2.56, 2.45
* EGDSLRYYYAN | GKNNPPS | SSRDYSGFQSF -> nd, nd, 4.73
* EGDSLRMYYAN | GKNNRPS | SSPDSSGFQQF -> 2.30, 3.24, 2.12
* EGDSLRYYYAF | GKNNRPS | SSRDESGFQGF -> nd, nd, 4.33
* EGDSLRYYYAN | GKNNRPS | SSRDSKGFQCF -> 2.30, 2.37, 2.16
* REDSLRYYYAN | GKNNRPS | SSRDSSGFQKF -> nd, 2.96, nd
* EGKSLRYYYAN | GKNNRPS | PSRDSSGFQIF -> 4.09, nd, nd
* ECDSLRYYYAN | GKNNTPS | SSRDSSGFQRF -> 3.12, 3.16, nd
* EGDSLRYMYAN | GKSNRPS | SSRDSSGFQPF -> 3.18, 2.81, 1.76
* EGDSLRYYYAE | GKNNRPS | SSRRSSGFQTF -> 4.59, nd, nd
* EGDSLRYYYPN | GKNNRPS | DSRDSSGFQCF -> 2.04, 1.98, 1.16
* EGDSLRYPYAN | GKNNRPS | SSRDSSGFQEF -> 3.33, nd, nd
* EGDSLRYYYAN | GKNNRPK | SSRDSSIFQWF -> 2.24, 2.28, 1.71
* EGDSLRVYYAN | GKNNRPS | SSRDSSYFQAF -> 3.04, 2.65, 2.65
* EGKSLRYYYAN | GKNNRPQ | SSRDSSGFQWF -> 2.49, 3.08, 2.57
* EGDSLRYYYAN | GKNSRPS | SSRDSSGFQEF -> 1.96, 1.85, 1.49
* EGDSLRYYVAN | GKNNRPA | SSRDSSGFQLF -> 3.51, 3.00, 3.36
* EGDSLRYYYAN | GKNNRPS | SSRDSYGFQCF -> 4.03, nd, 2.89
* EGDSLRYYYAN | GKNNRPS | SSRDWSLFQEF -> 2.08, 2.38, 3.09
* EGDSLRKYYAN | GKNNRPS | SSRDSNGFQEF -> 2.67, nd, nd
* EGDSLRYYYAN | FKNARPS | SSRDSSGFQRF -> nd, nd, nd
* EGDSLRYYYAN | GKNNRTS | WSRDSSGFQPF -> nd, 3.94, nd
* EGDSLRYYNAN | GKNNRPS | SSRDPSGFQAF -> 2.68, 4.66, nd
* EGDSLRYYYAN | GKNNRPS | SSRDSSGFQLF -> 2.38, 2.53, 1.61
* WGDSLRYYYAN | GKNNRPS | SSRDSSGFQCF -> 3.39, 3.62, 3.71
* EGDDLRYYYAA | GKNNRPS | SSRDSSGFQQF -> 4.49, 5.47, 4.69
* EGMSLRYYYAN | GKNNRPS | QSRDSSGFQFF -> 4.30, 3.40, nd
* EGDSLRYYYAN | GKNKRPS | SSRDSSGFQWF -> 4.48, nd, nd
* EGDSLRYYYAN | GKNNRPS | SSDDSSGFQLF -> 3.48, nd, 4.19
* EGDSLRYYYAN | GWNNRPS | SSRDSSHFQTF -> 3.70, nd, nd
* EGDSLRYPYAN | GKNNRPS | LSRDSSGFQRF -> 2.54, 2.38, 2.04
* EGDSLRYYYAN | GKNNRPS | SSRKSSGFCFF -> 3.83, 5.72, 4.44
* EGDSLRYYYAN | CKNNRPS | SSRDSRGFQEF -> 4.01, 5.12, nd
* EGDSLRYYDAN | GKNNDPS | SSRDSSGFQQF -> 2.82, 3.24, 2.42
* EGDSLRYYYAN | GKNNHPS | SSRDSSGFQMG -> nd, 4.61, nd
* EGDSLRYYYAN | GKNNRPV | SSRDSNGFQRF -> 2.65, 2.44, 3.19

The first 6 entries again:

{"CDR-L1": "ECDSLRYYYAN", "CDR-L2": "GKNNRPS", "CDR-L3": "SSRDSSGFQDF", "log10 Kd, replicates": "3.38, 3.68, nd"}
{"CDR-L1": "EGDSLRYYYAN", "CDR-L2": "GKNNRYS", "CDR-L3": "WSRDSSGFQWF", "log10 Kd, replicates": "nd, nd, 4.52"}
{"CDR-L1": "EGDSLRYYYAN", "CDR-L2": "GKNNTPS", "CDR-L3": "SSRPSSGFQHF", "log10 Kd, replicates": "3.81, 4.08, 3.63"}
{"CDR-L1": "EGDSLRYKYAN", "CDR-L2": "GKNFRPS", "CDR-L3": "SSRDSSGFQIF", "log10 Kd, replicates": "nd, 3.17, nd"}
{"CDR-L1": "EGDSLRYYYEN", "CDR-L2": "GKVNRPS", "CDR-L3": "SSRDSSGFQMF", "log10 Kd, replicates": "nd, nd, nd"}
{"CDR-L1": "EGDSLRKYYAN", "CDR-L2": "GKNNRPS", "CDR-L3": "SSRDSSGGQMF", "log10 Kd, replicates": "1.67, 2.19, 1.26"}

Three control strains display no target. For library AAYL52, 28% of the pairings with them gave a signal, with a median of 3.91 and one signal in twenty below 2.90, so weak values seen in few replicates may be background.

The measurements come from Engelhart et al. 2022 (doi:10.1038/s41597-022-01779-4) through the FLAb antibody collection.